{"sequences": {"note": "Protein sequences, listed by entry. Tags and fused reporters are not part of them.", "UniProt P21728, whole entry": "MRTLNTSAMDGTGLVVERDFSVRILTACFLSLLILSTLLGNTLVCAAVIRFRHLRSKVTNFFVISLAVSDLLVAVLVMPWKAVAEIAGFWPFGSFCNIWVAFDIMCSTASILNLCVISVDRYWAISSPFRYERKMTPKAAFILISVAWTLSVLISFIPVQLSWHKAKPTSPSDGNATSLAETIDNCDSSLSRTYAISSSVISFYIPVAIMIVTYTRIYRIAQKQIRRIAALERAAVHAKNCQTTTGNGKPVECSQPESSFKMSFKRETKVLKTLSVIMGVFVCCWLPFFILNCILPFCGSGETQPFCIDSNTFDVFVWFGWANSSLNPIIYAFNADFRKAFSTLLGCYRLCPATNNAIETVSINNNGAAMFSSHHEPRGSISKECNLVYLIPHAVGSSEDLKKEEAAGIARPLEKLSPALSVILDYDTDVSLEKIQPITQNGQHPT", "UniProt P21917, whole entry": "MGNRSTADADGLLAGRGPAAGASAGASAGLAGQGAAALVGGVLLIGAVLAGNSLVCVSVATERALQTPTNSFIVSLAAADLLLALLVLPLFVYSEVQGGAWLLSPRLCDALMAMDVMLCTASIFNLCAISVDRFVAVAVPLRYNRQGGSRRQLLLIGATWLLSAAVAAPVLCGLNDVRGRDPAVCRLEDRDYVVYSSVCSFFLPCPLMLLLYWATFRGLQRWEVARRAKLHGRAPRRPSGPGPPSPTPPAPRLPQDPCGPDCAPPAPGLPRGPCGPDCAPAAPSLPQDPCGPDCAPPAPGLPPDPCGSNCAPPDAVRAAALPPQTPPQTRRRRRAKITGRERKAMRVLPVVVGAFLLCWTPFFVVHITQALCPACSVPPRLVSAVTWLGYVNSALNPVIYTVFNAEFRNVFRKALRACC", "UniProt P35462, whole entry": "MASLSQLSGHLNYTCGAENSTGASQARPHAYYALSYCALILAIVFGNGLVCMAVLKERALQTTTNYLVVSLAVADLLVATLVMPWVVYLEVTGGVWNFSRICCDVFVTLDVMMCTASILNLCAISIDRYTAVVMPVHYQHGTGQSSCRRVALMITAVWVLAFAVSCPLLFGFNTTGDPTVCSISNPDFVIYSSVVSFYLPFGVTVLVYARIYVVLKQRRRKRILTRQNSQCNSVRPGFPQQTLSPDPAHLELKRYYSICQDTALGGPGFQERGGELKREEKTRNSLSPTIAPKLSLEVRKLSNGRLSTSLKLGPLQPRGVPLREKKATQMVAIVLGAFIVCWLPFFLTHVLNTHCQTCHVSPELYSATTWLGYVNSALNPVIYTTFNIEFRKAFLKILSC", "UniProt P14416, whole entry": "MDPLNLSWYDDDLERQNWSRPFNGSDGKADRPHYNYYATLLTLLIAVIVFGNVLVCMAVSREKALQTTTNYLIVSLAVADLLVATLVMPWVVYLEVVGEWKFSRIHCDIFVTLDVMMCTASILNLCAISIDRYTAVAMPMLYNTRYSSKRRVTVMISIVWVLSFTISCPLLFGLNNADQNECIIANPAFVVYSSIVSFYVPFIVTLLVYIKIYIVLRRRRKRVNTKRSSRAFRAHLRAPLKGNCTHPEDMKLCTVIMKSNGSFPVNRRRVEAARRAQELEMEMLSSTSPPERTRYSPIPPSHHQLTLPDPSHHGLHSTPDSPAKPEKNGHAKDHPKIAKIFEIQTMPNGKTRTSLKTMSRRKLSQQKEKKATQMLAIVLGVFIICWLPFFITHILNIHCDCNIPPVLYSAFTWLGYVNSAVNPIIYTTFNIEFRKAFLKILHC"}, "source": "patent US6723724B2", "about": "“Isoxazolylalkylpiperazine derivatives having selective biological activity at dopamine D3 or D4 receptor, and preparation thereof” (priority 2000, dated 2004)", "key": {"dopamine D1 receptor": {"target": "dopamine D1 receptor (Homo sapiens, UniProt P21728)", "assay": "Binding affinity to cloned human dopamine receptors (radioligand displacement), D1"}, "dopamine D4 receptor": {"target": "dopamine D4 receptor (Homo sapiens, UniProt P21917)", "assay": "Binding affinity to cloned human dopamine receptors (radioligand displacement), D4"}, "dopamine D3 receptor": {"target": "dopamine D3 receptor (Homo sapiens, UniProt P35462)", "assay": "Binding affinity to cloned human dopamine receptors (radioligand displacement), D3"}, "dopamine D2 receptor": {"target": "dopamine D2 receptor (Homo sapiens, UniProt P14416)", "assay": "Binding affinity to cloned human dopamine receptors (radioligand displacement), D2"}}}
{"smiles": "c1ccc(-c2cc(CCCCN3CCN(c4ccccc4)CC3)on2)cc1", "values": [{"measurement": "Affinity to Dopamine Receptors (% Inhibition) D1", "setting": "dopamine D1 receptor; 1 µM test compound", "value": 58.9, "unit": "%"}, {"measurement": "IC50", "setting": "dopamine D1 receptor; read-out: IC50 for Dopamine Receptors D1", "value": 320, "unit": "nM"}, {"measurement": "Affinity to Dopamine Receptors (% Inhibition) D4", "setting": "dopamine D4 receptor; 1 µM test compound", "value": 21.6, "unit": "%"}, {"measurement": "IC50", "setting": "dopamine D4 receptor; read-out: IC50 for Dopamine Receptors D4", "value": 832, "unit": "nM"}, {"measurement": "Affinity to Dopamine Receptors (% Inhibition) D3", "setting": "dopamine D3 receptor; 1 µM test compound", "value": 110.4, "unit": "%"}, {"measurement": "IC50", "setting": "dopamine D3 receptor; read-out: IC50 for Dopamine Receptors D3", "value": 41, "unit": "nM"}, {"measurement": "Affinity to Dopamine Receptors (% Inhibition) D2", "setting": "dopamine D2 receptor; 1 µM test compound", "value": 49.3, "unit": "%"}, {"measurement": "IC50", "setting": "dopamine D2 receptor; read-out: IC50 for Dopamine Receptors D2", "value": 15300, "unit": "nM"}]}
